# Columns and labels:
# [1] = tested on: CD3^+hCD1d/KRN7000 Tetramer^+ T cells; experiment: Expansion of CD3+ hCD1d/KRN7000 Tetramer+ T cells in PBMC culture, 7 days; assay type: cell-based, human
# Method: PBMC (1×10^6/ml) were cultured with KRN7000 alone (100 ng/ml), rhIL-2 alone, or with 100 ng/ml of KRN7000 plus 10 ng/ml rhIL-2 or 100 ng/ml rhIL-15 for 7 days. Percentage of CD3^+Tetramer^+ cells was determined by flow cytometry using antibody to CD3 and hCD1d/KRN7000 Tetramer. […] The number of Tetramer^+ cells was determined by multiplying the percentage of CD3 ^+Tetramer^+ cells by the number of cells recovered.
# PBMC = experiment: Proliferation of PBMCs, [3H]-thymidine incorporation; assay type: cell-based, human; conditions: donor 9 PBMC, 5 days, tritiated thymidine incorporation
# Method: Proliferation of PBMCs was measured in triplicate in 96-well flat-bottomed plates with 2×10^5 cells/well (0.2 ml). Cells were cultured for 5 days and pulsed with [^3H]-thymidine (1 μCi/well, ICN Pharmaceuticals, Irvine, Calif.) for the last 12 hours.
# One of 5 representative donors is shown.
# Vα24^+Vβ11^+ T cells = conditions: donor 9 PBMC
substance,measurement,setting,value
IL-2 only: recombinant human interleukin-2,% CD^3+ Tetramer^+ cells,"[1]; PBMC 1×10^6/ml, 7 days, KRN7000 100 ng/ml, rhIL-2 10 ng/ml, rhIL-15 100 ng/ml, flow cytometry",0.28%
same,number of Tetramer^+ cells,"[1]; percentage × cells recovered, day 7","1,988"
same,"Proliferation, cpm",PBMC,"30,233 cpm"
same,Percentage of Vα24/Vβ11 cells,"Vα24^+Vβ11^+ T cells; 7 days, flow cytometry",0.20%
same,Number of Vα24Vβ11 cells,"Vα24^+Vβ11^+ T cells; day 7, cell recovery × percentage","2,020"

# Source: patent US20030153073A1, “Expansion of T cells in vitro and expanded T cell populations” (priority 2001, published 2003)
